Results from patent US20160271063A1, “STERILE S-ADENOSYL METHIONINE WITH A HIGH CONTENT OF ACTIVE ISOMER FOR INJECTABLE SOLUTIONS, AND PROCEDURE FOR OBTAINING IT” (GNOSIS S.P.A., priority 2013, published 2016).

Columns and labels:
Type in all cases: physicochemical
[1] = Particle size (laser particle-size distribution analysis)
[2] = Residual humidity of the powder; details: Test in Mobile Minor unit; IN/OUT temperature differs per test
[3] = S,S isomer content by HPLC (area of active isomer to sum of both isomers)
Procedure: The S-adenosyl methionine of the invention preferably has a water content below 2% by weight and an active enantiomer content exceeding 75% of the total SAMe. The enantiomer content is determined by the percentage of the area of active isomer to the sum of the area of both isomers in the HPLC analysis.

[4] = Test in Mobile Minor unit, IN/OUT temperature differs per test

For “SAMe sulphate and p-toluenesulphonate [Example 6]”, the particle size [1] was “less than 50 microns”, the “Particle size D50μ” value [1, 4] was 8 μ and the Humidity % [2] was 2.07%. For the same substance, the “enantiomeric ratio, S,S isomer” value [3] was “exceeding 80%” and the “S,S Stereoisomer %” value [3, 4] was 71.16%.
